Reference: patent publication US7090991B2 (priority 1999, dated 2006)

Sequences of proteins named here, by UniProt entry; tags and fusion partners are left off. A change or cut given only in a name is not applied to a line headed by its entry.
UniProt P30542, whole entry: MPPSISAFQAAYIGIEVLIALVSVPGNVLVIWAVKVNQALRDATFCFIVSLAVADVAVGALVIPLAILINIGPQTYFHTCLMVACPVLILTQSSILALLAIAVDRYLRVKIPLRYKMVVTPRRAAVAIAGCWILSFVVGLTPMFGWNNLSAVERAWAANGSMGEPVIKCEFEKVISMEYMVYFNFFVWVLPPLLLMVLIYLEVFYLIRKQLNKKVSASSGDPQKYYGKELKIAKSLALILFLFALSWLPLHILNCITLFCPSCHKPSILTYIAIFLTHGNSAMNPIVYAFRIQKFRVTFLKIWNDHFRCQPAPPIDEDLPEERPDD
UniProt P29275: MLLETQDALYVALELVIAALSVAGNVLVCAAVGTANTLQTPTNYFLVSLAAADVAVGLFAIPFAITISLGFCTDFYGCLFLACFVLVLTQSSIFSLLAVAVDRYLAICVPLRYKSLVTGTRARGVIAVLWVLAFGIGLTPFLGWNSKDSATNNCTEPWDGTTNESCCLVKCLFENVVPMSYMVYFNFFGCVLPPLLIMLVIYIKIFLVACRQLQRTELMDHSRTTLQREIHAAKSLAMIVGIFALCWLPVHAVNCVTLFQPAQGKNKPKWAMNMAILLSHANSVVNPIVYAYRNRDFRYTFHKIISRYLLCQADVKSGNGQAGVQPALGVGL
UniProt P25105, whole entry, species assumed: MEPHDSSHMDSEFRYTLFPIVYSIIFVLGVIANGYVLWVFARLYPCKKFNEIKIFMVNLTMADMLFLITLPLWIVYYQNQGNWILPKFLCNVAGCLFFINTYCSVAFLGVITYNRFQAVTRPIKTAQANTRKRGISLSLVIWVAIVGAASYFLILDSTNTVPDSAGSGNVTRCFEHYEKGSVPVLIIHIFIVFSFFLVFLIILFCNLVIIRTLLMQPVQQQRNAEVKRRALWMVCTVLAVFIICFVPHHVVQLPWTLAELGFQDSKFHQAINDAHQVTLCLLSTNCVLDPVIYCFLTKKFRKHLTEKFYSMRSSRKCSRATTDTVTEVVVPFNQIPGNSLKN

Experiments:
Adenosine 1 Receptor = Adenosine 1 Receptor (Homo sapiens, UniProt P30542); conditions: A1; CY18776, CP5095; saturating or near saturating ligand; FDG
Adenosine 2B Receptor = Adenosine 2B Receptor (Homo sapiens, UniProt P29275); conditions: A2b; CY18634, CP6281; saturating or near saturating ligand; FDG
[1] = molecular target: T1, Platelet activating factor Receptor (Homo sapiens, UniProt P25105); assay: Test cell + FUS1p-lacZ plasmid, PAF receptor; assay type: cell-based; conditions: CY18592, CP1304, saturating or near saturating ligand
T1 construct: expressed in transfected cells; host or cells: Saccharomyces cerevisiae MATα test cells (MFα1-deleted)

[2] = molecular target: T1, Platelet activating factor Receptor; assay: Test cell + detector cell (FDG), PAF receptor; assay type: cell-based; conditions: CY18592, CP1304, saturating or near saturating ligand

NECA
Fold induction, Test cell + Detector Cell (Adenosine 1 Receptor): 20 fold | Fold induction, Test cell + Detector Cell (Adenosine 2B Receptor): 26 fold

PAF
Fold induction, Test Cell + FUS1p-lacZ plasmid [1]: 44 fold | Fold induction, Test cell + Detector Cell [2]: 16 fold
